Assay results from patent publication US4301140A, “Radiopharmaceutical method for monitoring kidneys” (G. D. Searle & Co., priority 1979, dated 1981).

How the values were obtained:
[1] = Scintiscan (Anger camera) monitoring of distribution of radioactivity after intravenous administration, female beagle dog; format: in vivo; set-up: key: -: no significant measured radioactivity; relative amounts of measured radioactivity ranging from (-) for no significant measured radioactivity to (+++) for the maximum measured radioactivity; relative amounts of measured radioactivity ranging from (-) for no significant measured radioactivity to (+++) for the maximum measured radioactivity; +++: the maximum measured radioactivity; settings: i.v., 9.4 mg, 0.5 mCi
Description: (§1) This procedure used with the rabbits was repeated with additional anesthetized animals: two female beagle dogs and two female rhesus monkeys. In these cases, however, unlike the cases of the rabbits, the complex solutions, again prepared generally as described in Examples 1 and 2, were injected intravenously in a saphenous vein of the dogs and monkeys.
Three milliliters of a solution of the complex formed from technetium-99m and 9.4 milligrams of fructose 1,6-diphosphate and having a radioactivity of 0.5 mCi were administered to one such dog weighing 11.7 kilograms. In addition, 1.6 milliliters of a solution of the complex formed from technetium-99m and 7.3 milligrams of fructose 6-phosphate having a radioactivity of 0.84 mCi were administered to a second such dog weighing 10.5 kilograms.
(§2) At various times after the aforesaid administrations of solutions of complexes of this invention, which times are indicated in Tables 1-6, scintiscan photographs and video tape recordings were taken of the aforesaid rabbit, beagles and monkeys using the Anger camera. This instrument was a Pho-Gamma LFOV Scintillation Camera System, Model 6413, fitted with a Model 3137 Vari-Back Camera, a Model 3122 Data-Store/Playback System and a Model 27851 Analog-Digital/Digital-AnalogConverter (all Searle Radiographics, Inc.). This entire system was interfaced with a Xerox 530 computer (Xerox Corp., Minneapolis, Minn.) which was programmed to record net counts per unit of time and percents of total counts in individual organs and to plot organ radioactivity versus time. The camera was operated with a 140 KeV high resolution Type II converging collimator using a 20 percent technetium-99m window. Generally 400,000 counts were accumulated on each scintiscan using both video tape and self-developing film, with the animal in the full ventral position. The photographs represented a visualization of the anatomic relationships in the kidneys.
(§3) Tables 1-6 contain semi-quantitative representations of the distribution of radioactivity in the organs of the test animals determined from the scintiscans. In Tables 1-6, (--), (+), (++) and (+++) indicate relative amounts of measured radioactivity ranging from (-) for no significant measured radioactivity to (+++) for the maximum measured radioactivity.

[2] = Plasma clearance after intravenous injection, dogs (gamma spectrometer); format: in vivo, dog (male mongrel and female beagle); settings: i.v.
Description: Each of one male mongrel and three female beagle dogs was given at least one intravenous injection of a solution of the complex of technetium-99m and fructose 1,6-diphosphate or a solution of the complex of technetium-99m and fructose 6-phosphate. In each case about 0.5-2 milliliters of a solution of the complex having radioactivity of about 1-4 mCi and formed from 0.5-10 milligrams of complexing agent were administered. Four injections of solutions of the complex of technetium-99m and fructose 6-phosphate and 2 injections of solutions of the complex of technetium-99m and fructose 1,6-diphosphate were made. The dogs ranged in weight from 6 to 15 kilograms. Periodically blood samples were removed from the jugular vein of the dogs and collected in vacuum tubes containing the disodium salt of ethylenediamine tetracetic acid and the radioactivity of one milliliter samples of plasma were measured in a gamma spectrometer.
The gamma spectrometer employed was a Model 1185 Gamma Scintillation Spectrometer (Searle Analytic Inc., Des Plaines, Ill.). One milliliter samples of plasma or whole blood were analyzed for technetium-99m, and samples were counted for 1 minute. As determined by the computer, the curve in FIG. 2 and the five other corresponding curves (not shown) from the other tests with the dogs were the best fitting curves passing through the plots of experimentally measured radioactivities.

[3] = Scintiscan (Anger camera) monitoring of distribution of radioactivity after intravenous administration, rhesus monkey; format: in vivo; set-up: key: -: no significant measured radioactivity; relative amounts of measured radioactivity ranging from (-) for no significant measured radioactivity to (+++) for the maximum measured radioactivity; relative amounts of measured radioactivity ranging from (-) for no significant measured radioactivity to (+++) for the maximum measured radioactivity; +++: the maximum measured radioactivity; settings: i.v., 1.1 mg, 1.2 mCi
Description: as §1
Similarly 0.3 milliliter of a solution of the complex formed from technetium-99m and 1.1 milligrams of fructose 1,6-diphosphate having a radioactivity of 1.2 mCi were administered to one such monkey weighing 5.1 kilograms. Also 1.5 milliliters of a solution of the complex formed from technetium-99m and 7.6 milligrams of fructose 6-phosphate having a radioactivity of 0.79 mCi were administered to a second such monkey weighing 6.7 kilograms.
as §2, §3

[4] = Scintiscan (Anger camera) monitoring of distribution of radioactivity after intravenous administration, rabbit; format: in vivo, New Zealand rabbit; set-up: key: -: no significant measured radioactivity; relative amounts of measured radioactivity ranging from (-) for no significant measured radioactivity to (+++) for the maximum measured radioactivity; relative amounts of measured radioactivity ranging from (-) for no significant measured radioactivity to (+++) for the maximum measured radioactivity; +++: the maximum measured radioactivity; settings: i.v., 0.95 mg, 0.5 mCi
Description: Approximately 0.2 milliliter of a solution of the complex formed from technetium-99m and 0.95 milligram of fructose 1,6-diphosphate and prepared generally as described in Example 1 and having a radioactivity of 0.5 millicurie was administered intravenously to an anesthetized New Zealand rabbit weighing about 3 kilograms. Approximately the same volume of a solution of the complex formed from technetium-99m and 1.21 milligrams of fructose 6-phosphate prepared generally as described in Example 2, having a radioactivity of 0.81 millicurie was similarly administered to a second New Zealand rabbit of about the same weight. The injections were made using a 1 milliliter tuberculin syringe connected to a #23 gauge indwelling cannula inserted into a marginal ear vein. Each rabbit was positioned in a full ventral position for 2.5 to 3 hours during which time the disposition of the radioactivity in the rabbit in this position was monitored using a computer-augmented Anger camera. The measurements and results are discussed hereinafter, and the results of the test using the fructose 1,6-diphosphate and fructose 6-phosphate complexes are presented in Tables 1 and 2, respectively.
as §2, §3

Q: With “complex of technetium-99m and fructose 1,6-diphosphate” as the substance, how does the “Relative distribution of complex: Kidneys” value ([1]; 5 min) read?
A: ++

Q: What about the “Relative distribution of complex: Urinary Bladder” value ([1]; 5 min) of the same substance?
A: +

Q: And the “Relative distribution of complex: Vascular” value ([1]; 5 min)?
A: +

Q: What about the “Relative distribution of complex: Kidneys” value ([1]; 13 min) of the same substance?
A: +

Q: What about the “Relative distribution of complex: Urinary Bladder” value ([1]; 13 min) of the same substance?
A: ++

Q: And the “Relative distribution of complex: Vascular” value ([1]; 13 min)?
A: +

Q: What about the “Relative distribution of complex: Kidneys” value ([1]; 40 min) of the same substance?
A: +

Q: What about the “Relative distribution of complex: Urinary Bladder” value ([1]; 40 min) of the same substance?
A: +++

Q: What about the “Relative distribution of complex: Vascular” value ([1]; 40 min) of the same substance?
A: -

Q: What about the “Relative distribution of complex: Kidneys” value ([1]; 60 min) of the same substance?
A: +

Q: And the “Relative distribution of complex: Urinary Bladder” value ([1]; 60 min)?
A: +++

Q: What about the “Relative distribution of complex: Vascular” value ([1]; 60 min) of the same substance?
A: -

Q: And the “half time, distributive phase of plasma clearance curve” value ([2]; dog, single curve of FIG. 2)?
A: 0.0565 h

Q: And the “half time, elimination phase of plasma clearance curve” value ([2]; dog, single curve of FIG. 2)?
A: 0.947 h

Q: And the “average half time, distributive phase” value ([2]; dogs, two tests, standard deviation 0.009 hour)?
A: 0.063 h

Q: And the “average half time, elimination phase” value ([2]; dogs, two tests, standard deviation 0.23 hour)?
A: 1.34 h

Q: And the “Relative distribution of complex: Kidneys” value ([3]; 6 min)?
A: ++

Q: What about the “Relative distribution of complex: Urinary Bladder” value ([3]; 6 min) of the same substance?
A: ++

Q: And the “Relative distribution of complex: Vascular” value ([3]; 6 min)?
A: ++

Q: And the “Relative distribution of complex: Kidneys” value ([3]; 16 min)?
A: ++

Q: What about the “Relative distribution of complex: Urinary Bladder” value ([3]; 16 min) of the same substance?
A: ++

Q: What about the “Relative distribution of complex: Vascular” value ([3]; 16 min) of the same substance?
A: +

Q: What about the “Relative distribution of complex: Kidneys” value ([3]; 27 min) of the same substance?
A: ++

Q: What about the “Relative distribution of complex: Urinary Bladder” value ([3]; 27 min) of the same substance?
A: ++

Q: And the “Relative distribution of complex: Vascular” value ([3]; 27 min)?
A: +

Q: And the “Relative distribution of complex: Kidneys” value ([3]; 36 min)?
A: ++

Q: What about the “Relative distribution of complex: Urinary Bladder” value ([3]; 36 min) of the same substance?
A: +++

Q: And the “Relative distribution of complex: Vascular” value ([3]; 36 min)?
A: +

Q: And the “Relative distribution of complex: Kidneys” value ([3]; 46 min)?
A: ++

Q: And the “Relative distribution of complex: Urinary Bladder” value ([3]; 46 min)?
A: +++

Q: What about the “Relative distribution of complex: Vascular” value ([3]; 46 min) of the same substance?
A: -

Q: What about the “Relative distribution of complex: Kidneys” value ([3]; 56 min) of the same substance?
A: +

Q: And the “Relative distribution of complex: Urinary Bladder” value ([3]; 56 min)?
A: +++

Q: What about the “Relative distribution of complex: Vascular” value ([3]; 56 min) of the same substance?
A: -

Q: And the “Relative distribution of complex: Kidneys” value ([3]; 70 min)?
A: +

Q: What about the “Relative distribution of complex: Urinary Bladder” value ([3]; 70 min) of the same substance?
A: +++

Q: And the “Relative distribution of complex: Vascular” value ([3]; 70 min)?
A: -

Q: What about the “Relative distribution of complex: Kidneys” value ([4]; 1 min) of the same substance?
A: +

Q: What about the “Relative distribution of complex: Urinary Bladder” value ([4]; 1 min) of the same substance?
A: +

Q: And the “Relative distribution of complex: Vascular” value ([4]; 1 min)?
A: ++

Q: And the “Relative distribution of complex: Kidneys” value ([4]; 3 min)?
A: +

Q: And the “Relative distribution of complex: Urinary Bladder” value ([4]; 3 min)?
A: +

Q: And the “Relative distribution of complex: Vascular” value ([4]; 3 min)?
A: ++

Q: And the “Relative distribution of complex: Kidneys” value ([4]; 30 min)?
A: ++

Q: What about the “Relative distribution of complex: Urinary Bladder” value ([4]; 30 min) of the same substance?
A: ++

Q: What about the “Relative distribution of complex: Vascular” value ([4]; 30 min) of the same substance?
A: +

Q: And the “Relative distribution of complex: Kidneys” value ([4]; 60 min)?
A: ++

Q: What about the “Relative distribution of complex: Urinary Bladder” value ([4]; 60 min) of the same substance?
A: +++

Q: What about the “Relative distribution of complex: Vascular” value ([4]; 60 min) of the same substance?
A: -

Q: And the “Relative distribution of complex: Kidneys” value ([4]; 180 min)?
A: +

Q: What about the “Relative distribution of complex: Urinary Bladder” value ([4]; 180 min) of the same substance?
A: +++

Q: What about the “Relative distribution of complex: Vascular” value ([4]; 180 min) of the same substance?
A: -
